# Source: patent US20070026408A1, “Materials and methods for analysis of atp-binding cassette transporter gene expression” (priority 2003, published 2007)
# What was measured:
# [1] = test system: abcA3; assay: DT1 microarray drug screening, drug-treated HepG2: abcA3; type: cell-based, human; details: HepG2, vinblastine sulfate 25 nM, 8 h, standard 24
# Procedure: (§1) The labelled cDNA target preparation was thawed and the 150 μl added to 850 ul hybridisation buffer (500 mM sodium Phosphate pH 6.0, 1% SDS, 1% BSA, 1 mM EDTA) in a 1.5 ml microtube and heated at 95° C. for 10 min.
# [2] = test system: abcC7; assay: DT1 microarray drug screening, drug-treated HepG2: abcC7; type: cell-based, human; details: HepG2, vinblastine sulfate 25 nM, standard 24
# Procedure: as §1
# [3] = test system: abcB7; assay: DT1 microarray drug screening, drug-treated HepG2: abcB7; type: cell-based, human; details: HepG2, vinblastine sulfate 25 nM, standard 24
# Procedure: as §1
# [4] = test system: abcC11; assay: DT1 microarray drug screening, drug-treated HepG2: abcC11; type: cell-based, human; details: HepG2, vinblastine sulfate 25 nM, standard 24
# Procedure: as §1
# [5] = test system: abcA1; assay: DT1 microarray drug screening, drug-treated HepG2: abcA1; type: cell-based, human; details: HepG2, vinblastine sulfate 25 nM, standard 24
# Procedure: as §1
# [6] = test system: abcF2; assay: DT1 microarray drug screening, drug-treated HepG2: abcF2; type: cell-based, human; details: HepG2, vinblastine sulfate 25 nM, standard 24
# Procedure: as §1
# [7] = test system: abcC2; assay: DT1 microarray drug screening, drug-treated HepG2: abcC2; type: cell-based, human; details: HepG2, vinblastine sulfate 25 nM, standard 24
# Procedure: as §1
# [8] = test system: abcC1; assay: DT1 microarray drug screening, drug-treated HepG2: abcC1; details: HepG2, vinblastine sulfate 25 nM, standard 24
# [9] = test system: abcA9; assay: DT1 microarray drug screening, drug-treated HepG2: abcA9; type: cell-based, human; details: HepG2, vinblastine sulfate 25 nM, standard 24
# Procedure: as §1
# [10] = test system: abcA8; assay: DT1 microarray drug screening, drug-treated HepG2: abcA8; type: cell-based, human; details: HepG2, vinblastine sulfate 25 nM, standard 24
# Procedure: as §1
# [11] = test system: abcG2; assay: DT1 microarray drug screening, drug-treated HepG2: abcG2; type: cell-based, human; details: HepG2, vinblastine sulfate 25 nM, standard 24
# Procedure: as §1
# [12] = test system: abcA5; assay: DT1 microarray drug screening, drug-treated HepG2: abcA5; type: cell-based, human; details: HepG2, vinblastine sulfate 25 nM, standard 24
# Procedure: as §1
# [13] = test system: abcB3; assay: DT1 microarray drug screening, drug-treated HepG2: abcB3; type: cell-based, human; details: HepG2, vinblastine sulfate 25 nM, standard 24
# Procedure: as §1
# [14] = test system: abcC10; assay: DT1 microarray drug screening, drug-treated HepG2: abcC10; type: cell-based, human; details: HepG2, vinblastine sulfate 25 nM, standard 24
# Procedure: as §1
# [15] = test system: abcG4; assay: DT1 microarray drug screening, drug-treated HepG2: abcG4; type: cell-based, human; details: HepG2, vinblastine sulfate 25 nM, standard 24
# Procedure: as §1
# [16] = test system: abcC12; assay: DT1 microarray drug screening, drug-treated HepG2: abcC12; type: cell-based, human; details: HepG2, vinblastine sulfate 25 nM, standard 24
# Procedure: as §1
# [17] = test system: abcG8; assay: DT1 microarray drug screening, drug-treated HepG2: abcG8; type: cell-based, human; details: HepG2, vinblastine sulfate 25 nM, standard 24
# Procedure: as §1
# [18] = test system: abcB8; assay: DT1 microarray drug screening, drug-treated HepG2: abcB8; type: cell-based, human; details: HepG2, vinblastine sulfate 25 nM, standard 24
# Procedure: as §1
# [19] = test system: abcC3; assay: DT1 microarray drug screening, drug-treated HepG2: abcC3; type: cell-based, human; details: HepG2, vinblastine sulfate 25 nM, standard 24
# Procedure: as §1
# [20] = test system: abcG1; assay: DT1 microarray drug screening, drug-treated HepG2: abcG1; type: cell-based, human; details: HepG2, vinblastine sulfate 25 nM, standard 24
# Procedure: as §1
# [21] = test system: abcB4; assay: DT1 microarray drug screening, drug-treated HepG2: abcB4; type: cell-based, human; details: HepG2, vinblastine sulfate 25 nM, standard 24
# Procedure: as §1
# [22] = test system: abcC9; assay: DT1 microarray drug screening, drug-treated HepG2: abcC9; type: cell-based, human; details: HepG2, vinblastine sulfate 25 nM, standard 24
# Procedure: as §1
# [23] = test system: abcA2; assay: DT1 microarray drug screening, drug-treated HepG2: abcA2; type: cell-based, human; details: HepG2, vinblastine sulfate 25 nM, standard 24
# Procedure: as §1
# [24] = test system: abcF1; assay: DT1 microarray drug screening, drug-treated HepG2: abcF1; type: cell-based, human; details: HepG2, vinblastine sulfate 25 nM, standard 24
# Procedure: as §1
structure (smiles),measurement,setting,value
"CC[C@]1(O)C[C@@H]2CN(CCc3c([nH]c4ccccc34)[C@@](C(=O)OC)(c3cc4c(cc3OC)N(C)[C@H]3[C@@](O)(C(=O)OC)[C@H](OC(C)=O)[C@]5(CC)C=CCN6CC[C@]43[C@@H]65)C2)C1 [vin, vinblastine sulfate]",relative level of abcA3 gene expression,[1],14.94
same,relative level of abcC7 gene expression,[2]; 2 h,13.78
same,relative level of abcC7 gene expression,[2]; 4 h,13.43
same,relative level of abcC7 gene expression,[2]; 8 h,16.12
same,relative level of abcB7 gene expression,[3]; 2 h,0.4619
same,relative level of abcB7 gene expression,[3]; 4 h,0.3467
same,relative level of abcB7 gene expression,[3]; 8 h,0.6958
same,relative level of abcC11 gene expression,[4]; 2 h,9.016
same,relative level of abcC11 gene expression,[4]; 4 h,7.821
same,relative level of abcC11 gene expression,[4]; 8 h,11.1
same,relative level of abcA1 gene expression,[5]; 2 h,6.833
same,relative level of abcA1 gene expression,[5]; 4 h,5.064
same,relative level of abcA1 gene expression,[5]; 8 h,6.364
same,relative level of abcF2 gene expression,[6]; 2 h,9.21
same,relative level of abcF2 gene expression,[6]; 4 h,8.646
same,relative level of abcF2 gene expression,[6]; 8 h,9.398
same,relative level of abcC2 gene expression,[7]; 2 h,1.43
same,relative level of abcC2 gene expression,[7]; 4 h,1.197
same,relative level of abcC2 gene expression,[7]; 8 h,1.419
same,relative level of abcC1 gene expression,[8]; 2 h,16.22
same,relative level of abcC1 gene expression,[8]; 4 h,15.1016
same,relative level of abcC1 gene expression,[8]; 8 h,12.69
same,relative level of abcA9 gene expression,[9]; 2 h,12.25
same,relative level of abcA9 gene expression,[9]; 4 h,10.2
same,relative level of abcA9 gene expression,[9]; 8 h,18.62
same,relative level of abcA8 gene expression,[10]; 2 h,8.424
same,relative level of abcA8 gene expression,[10]; 4 h,6.724
same,relative level of abcA8 gene expression,[10]; 8 h,10.26
same,relative level of abcG2 gene expression,[11]; 2 h,6.442
same,relative level of abcG2 gene expression,[11]; 4 h,5.659
same,relative level of abcG2 gene expression,[11]; 8 h,6.037
same,relative level of abcA5 gene expression,[12]; 2 h,7.895
same,relative level of abcA5 gene expression,[12]; 4 h,6.137
same,relative level of abcA5 gene expression,[12]; 8 h,8.642
same,relative level of abcB3 gene expression,[13]; 2 h,9.144
same,relative level of abcB3 gene expression,[13]; 4 h,8.4
same,relative level of abcB3 gene expression,[13]; 8 h,14.79
same,relative level of abcC10 gene expression,[14]; 2 h,10.92
same,relative level of abcC10 gene expression,[14]; 4 h,8.808
same,relative level of abcC10 gene expression,[14]; 8 h,9.007
same,relative level of abcG4 gene expression,[15]; 2 h,12.5
same,relative level of abcG4 gene expression,[15]; 4 h,13.2242
same,relative level of abcG4 gene expression,[15]; 8 h,9.999
same,relative level of abcC12 gene expression,[16]; 2 h,8.047
same,relative level of abcC12 gene expression,[16]; 4 h,7.567
same,relative level of abcC12 gene expression,[16]; 8 h,8.523
same,relative level of abcG8 gene expression,[17]; 2 h,9.699
same,relative level of abcG8 gene expression,[17]; 4 h,8.751
same,relative level of abcG8 gene expression,[17]; 8 h,7.316
same,relative level of abcB8 gene expression,[18]; 2 h,16.52
same,relative level of abcB8 gene expression,[18]; 4 h,15.3408
same,relative level of abcB8 gene expression,[18]; 8 h,20.22
same,relative level of abcC3 gene expression,[19]; 2 h,12.15
same,relative level of abcC3 gene expression,[19]; 4 h,10.17
same,relative level of abcC3 gene expression,[19]; 8 h,11.29
same,relative level of abcG1 gene expression,[20]; 2 h,9.753
same,relative level of abcG1 gene expression,[20]; 4 h,8.364
same,relative level of abcG1 gene expression,[20]; 8 h,8.727
same,relative level of abcB4 gene expression,[21]; 2 h,16.19
same,relative level of abcB4 gene expression,[21]; 4 h,13.24
same,relative level of abcB4 gene expression,[21]; 8 h,23.08
same,relative level of abcC9 gene expression,[22]; 2 h,9.88
same,relative level of abcC9 gene expression,[22]; 4 h,9.014
same,relative level of abcC9 gene expression,[22]; 8 h,9.735
same,relative level of abcA2 gene expression,[23]; 2 h,7.398
same,relative level of abcA2 gene expression,[23]; 4 h,6.087
same,relative level of abcA2 gene expression,[23]; 8 h,9.543
same,relative level of abcF1 gene expression,[24]; 2 h,7.852
same,relative level of abcF1 gene expression,[24]; 4 h,7.234
same,relative level of abcF1 gene expression,[24]; 8 h,5.759

# Counter-ions that a name gives are not always drawn.
